The values below come from ChEMBL document CHEMBL3232718, “Design, synthesis, and characterization of novel, nonquaternary reactivators of GF-inhibited human acetylcholinesterase” (2014).

The chains behind the UniProt entries cited, without tags or fusion partners. Where a name states a change or a piece, a line headed by the entry shows the natural chain unless it says otherwise.
UniProt P22303: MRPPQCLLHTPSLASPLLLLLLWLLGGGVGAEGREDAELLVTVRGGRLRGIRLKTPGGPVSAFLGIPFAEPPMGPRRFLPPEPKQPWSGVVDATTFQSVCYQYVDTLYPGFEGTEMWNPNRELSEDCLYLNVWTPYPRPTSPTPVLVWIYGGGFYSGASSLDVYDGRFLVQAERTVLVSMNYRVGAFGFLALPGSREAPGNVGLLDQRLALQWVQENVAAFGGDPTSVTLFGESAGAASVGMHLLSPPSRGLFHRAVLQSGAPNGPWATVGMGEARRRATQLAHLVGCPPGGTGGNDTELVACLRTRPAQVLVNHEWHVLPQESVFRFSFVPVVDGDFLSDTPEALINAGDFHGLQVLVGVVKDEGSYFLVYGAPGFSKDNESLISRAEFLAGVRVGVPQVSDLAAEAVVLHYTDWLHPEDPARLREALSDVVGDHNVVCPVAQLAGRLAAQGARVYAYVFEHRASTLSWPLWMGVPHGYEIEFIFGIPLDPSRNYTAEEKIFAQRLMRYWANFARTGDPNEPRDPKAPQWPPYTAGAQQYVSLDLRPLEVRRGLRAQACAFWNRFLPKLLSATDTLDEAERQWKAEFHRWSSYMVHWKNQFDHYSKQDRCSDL

The target in experiment [1] is Acetylcholinesterase (Homo sapiens) (UniProt P22303). Description: Inhibition of human AChE using acetylthiocholine as substrate assessed as residual activity at 20 uM after 4 hrs by robotic spectrophotometric assay relative to control.
Experiment [2] has the same target. Nature of the experiment: Reactivation of cyclosarin-inhibited human AChE using acetylthiocholine as substrate at 20 uM after 4 hrs by robotic spectrophotometric assay. Further details: scale not given: the % may be the effect or the level left.

With `O=C(/C=N/O)c1ccc(OCC2CCN(Cc3cccc(Cl)c3)CC2)nc1`, the figures for the Activity in experiment [1] and in experiment [2] were 93.7% and 20.2%, respectively.

As to `O=C(/C=N/O)c1ccc(OCC2CCN(Cc3ccc(F)c(F)c3)CC2)nc1`, the Activity in experiment [1] was 88.8%; in experiment [2], 34.7%.

On to `COc1ccc(CN2CCC(COc3ccc(C(=O)/C=N/O)cn3)C2)cc1OC` (centres undefined), for which the Activity was 98.9% in experiment [1] and 24.9% in experiment [2].

Take `O=C(/C=N/O)NC1CCN(Cc2ccccc2)CC1`: in experiment [2], the Activity came to 7.6%.

`CC(=O)/C(=N\O)C(=O)NCC1CCN(Cc2ccccc2)CC1` returned an Activity in experiment [2] of 23.9%.

With `COc1cc2c(cc1OC)C(c1ccccc1)N(CCCNC(=O)/C=N/O)CC2` (centres undefined), the Activity in experiment [1] turned out to be 92.5%; in experiment [2], 2.9%.

As to `O=C(/C=N/O)c1ccc(NCC2CCN(Cc3ccccc3)CC2)nc1`, the Activity in experiment [1] came to 97.3%; in experiment [2] it was 23.5%.

As to `O=C(/C=N/O)c1cnc(OCC2CCN(Cc3ccccc3)CC2)nc1`, the Activity in experiment [1] worked out at 73.4%; in experiment [2], 32.4%.

For `N#C/C(=N\O)C(=O)NCC1CCN(Cc2ccccc2)CC1`, the Activity in experiment [1] came out at 99.9%; in experiment [2], 4.8%.

Consider `COc1cc2c(cc1OC)CN(CCCNC(=O)/C(=N/O)C(C)=O)CC2`, for which the figures for the Activity in experiment [1] and in experiment [2] were 97.3% and 29.8%, respectively.

In the case of `O=C(/C=N/O)c1ccc(OCC2CCN(Cc3ccccc3)C2)nc1` (centres undefined), the Activity came to 85.7% in experiment [1] and 29.3% in experiment [2].

Take `COc1ccc(CN2CCCCC2COc2ccc(C(=O)/C=N/O)cn2)cc1OC` (centres undefined): the Activity came to 91.1% in experiment [1] and 71.3% in experiment [2].

For the compound `O=C(/C=N/O)c1cccc(OCC2CCN(Cc3ccccc3)CC2)n1`, the Activity was 85.8% in experiment [1] and 8.52% in experiment [2].

For `O=C(/C=N/O)c1ccc(OCC2CCCCN2Cc2ccccc2)nc1` (centres undefined), the values for the Activity in experiment [1] and in experiment [2] were 96.5% and 35.2%, respectively.

For the compound `O=C(/C=N/O)c1cccnc1OCC1CCN(Cc2ccccc2)CC1`, the results for the Activity in experiment [1] and in experiment [2] were 90.4% and 50.1%, respectively.

Turning to `COc1cc2c(cc1OC)C(c1ccccc1)N(CCCNC(=O)/C(=N/O)C(C)=O)CC2` (centres undefined), the figures for the Activity in experiment [1] and in experiment [2] were 99.2% and 36.8%, respectively.

For `CC(=O)/C(=N\O)C(=O)NC1CCN(Cc2ccccc2)CC1`, the Activity in experiment [1] is 92.1%; in experiment [2], 12.8%.

`O/N=C/c1cnc(OCC2CCN(Cc3ccccc3)CC2)nc1`: the Activity is 90.8% in experiment [1] and 2.2% in experiment [2].

For the compound `O/N=C/c1ccc(OCC2CCN(Cc3ccccc3)CC2)nc1`, the Activity in experiment [1] worked out at 100%; in experiment [2], 0.42%.

As for `O=C(/C=N/O)NCCCCNc1c2c(nc3ccccc13)CCCC2`, the Activity in experiment [1] turned out to be 7%; in experiment [2], 34.7%.

Take `O=C(/C=N/O)NCCCNc1c2c(nc3ccccc13)CCCC2`: the Activity in experiment [1] worked out at 23.7%; in experiment [2], 30.4%.

As for `COc1ccc(CN2CCC(COc3ccc(C(=O)/C=N/O)cn3)CC2)cc1OC`, the values for the Activity in experiment [1] and in experiment [2] were 95.3% and 26.6%, respectively.

For `N#Cc1ccc(CN2CCC(COc3ccc(C(=O)/C=N/O)cn3)CC2)cc1`, the Activity came to 98.8% in experiment [1] and 21.6% in experiment [2].

As to `N#C/C(=N\O)C(=O)NCCCNc1c2c(nc3ccccc13)CCCC2`, the Activity worked out at 6.97% in experiment [1] and 100% in experiment [2].

With `COc1ccc(CN2CCC(CNC(=O)/C(=N/O)C(C)=O)CC2)cc1OC`, the Activity in experiment [1] was 92.8%; in experiment [2], 24.5%.

Regarding `O=C(/C=N/O)c1ccnc(OCC2CCN(Cc3ccccc3)CC2)c1`, the Activity in experiment [1] is 89%; in experiment [2], 19.4%.

In the case of `O=C(/C=N/O)NCC1CCN(Cc2ccccc2)CC1`, the Activity in experiment [1] was 99.4%; in experiment [2], 7.7%.

Compound `CC(=O)/C=N/O` displayed an Activity in experiment [2] of 6.1%.

`O=C(/C=N/O)c1ccc(OCC2CCN(Cc3ccccc3)CC2)nc1`: the values for the Activity in experiment [1] and in experiment [2] were 60.9% and 37.8%, respectively.

`COc1ccc(CN2CCCC(COc3ccc(C(=O)/C=N/O)cn3)C2)cc1OC` (centres undefined): the results for the Activity in experiment [1] and in experiment [2] were 95.3% and 40%, respectively.

Consider `N#C/C(=N\O)C(=O)NC1CCN(Cc2ccccc2)CC1`, for which the Activity in experiment [1] came out at 97.3%; in experiment [2], 0.06%.
